The source of these data is PubChem BioAssay AID720708 (National Center for Advancing Translational Sciences (NCATS), 2013).

Sequences of proteins named here, by UniProt entry; tags and fusion partners are left off.
UniProt Q8WZA2, whole entry: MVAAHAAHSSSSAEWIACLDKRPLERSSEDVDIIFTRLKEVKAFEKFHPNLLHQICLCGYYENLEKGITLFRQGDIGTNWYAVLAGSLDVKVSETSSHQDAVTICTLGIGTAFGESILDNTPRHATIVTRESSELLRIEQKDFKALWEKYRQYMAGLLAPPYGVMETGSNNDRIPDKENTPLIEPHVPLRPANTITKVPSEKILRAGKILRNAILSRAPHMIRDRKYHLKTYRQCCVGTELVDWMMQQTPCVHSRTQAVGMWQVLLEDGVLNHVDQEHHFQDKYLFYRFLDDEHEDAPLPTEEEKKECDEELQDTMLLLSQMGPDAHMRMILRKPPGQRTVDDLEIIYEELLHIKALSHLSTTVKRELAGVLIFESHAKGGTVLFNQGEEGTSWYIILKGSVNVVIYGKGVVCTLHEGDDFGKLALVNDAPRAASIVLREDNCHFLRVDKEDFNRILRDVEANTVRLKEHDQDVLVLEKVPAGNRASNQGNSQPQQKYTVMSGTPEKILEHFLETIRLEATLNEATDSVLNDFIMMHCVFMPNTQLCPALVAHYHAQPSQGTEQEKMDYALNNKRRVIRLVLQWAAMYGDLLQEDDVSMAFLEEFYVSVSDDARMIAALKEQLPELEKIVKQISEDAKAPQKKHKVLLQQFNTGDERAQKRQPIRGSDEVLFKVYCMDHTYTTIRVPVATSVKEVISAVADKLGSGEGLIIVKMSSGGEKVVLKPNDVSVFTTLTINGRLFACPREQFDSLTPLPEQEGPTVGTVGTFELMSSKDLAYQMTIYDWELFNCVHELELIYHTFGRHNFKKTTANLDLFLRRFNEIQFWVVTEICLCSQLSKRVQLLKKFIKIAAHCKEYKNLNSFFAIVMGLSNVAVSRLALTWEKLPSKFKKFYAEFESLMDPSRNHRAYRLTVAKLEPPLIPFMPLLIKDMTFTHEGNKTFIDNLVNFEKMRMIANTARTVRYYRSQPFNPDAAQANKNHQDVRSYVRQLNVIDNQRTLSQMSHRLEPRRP

The list shows a part of the results, in another mix than the full data. The source made the active and inactive calls. The call rests on the fitted dose curve; in most records, active means well fitted inhibition curve with a large enough effect; inconclusive means small, poorly fitted or top-dose-only effect; inactive means no such curve, though single readings can be large or run the other way.
On the % scale 0 is the no-effect control and ±100 the full control effect.

This assay has as its target Rap guanine nucleotide exchange factor 4 (Homo sapiens) (UniProt Q8WZA2). The assay is described as follows: qHTS for Antagonist of cAMP-regulated guanine nucleotide exchange factor 2 (EPAC2): primary screen. Further: nearly all actives have a fitted effect of over 45% in size. To be noted: EPAC2 GEF exchange of Rap1B-BODIPY-GDP, fluorescence; at 114 µM (top of the series). The source says: In multi-cellular eukaryotic organisms, the effects of cAMP are transduced by two ubiquitously-expressed intracellular cAMP receptors, the classic protein kinase A/cAMP-dependent protein kinase (PKA/cAPK) and the more recently discovered exchange protein directly activated by cAMP/cAMP-regulated guanine nucleotide exchange factor (EPAC/cAMP-GEF). Both PKA and EPAC are ubiquitously expressed in all tissues, and an increase in intracellular cAMP levels will lead to the activation of both PKA and EPAC. […]
This qHTS will be used to screen the Molecular Libraries Small Molecule Repository (MLSMR) as a concentration-titration series using the NCGC unique quantitative screening (qHTS) platform to find inhibitors for EPAC2. […] Inhibitors are identified by monitoring the change in fluorescence signal as the exchanged free BODIPY-GDP has a reduced fluorescence compared to Rap1-bound BODIPY-GDP. […]
Briefly, three uL of reagents (100 nM EPAC2, 250 nM RAP1B-BODIPY-GDP, 50 uM GDP) were dispensed into a 1536-well Greiner black solid-bottom medium binding assay plate. […] The assay plates were read at 5 minute intervals for 30 minutes in the ViewLux plate reader using 480nm excitation and 540nm emission filters. […]
(In general: In qHTS, concentration-response curves come from the screen itself.)
Consider `CCC(=O)N(c1ccccc1)C1(COC)CCN(CCc2cccs2)CC1`, for which the activity, negative = inhibition was inactive: 20.4%.

In the case of `CCC(=O)N(c1ccccc1)C1(COC)CCN(CCn2nnn(CC)c2=O)CC1`, the activity, negative = inhibition is inactive: 9.49%.
